Reference: ChEMBL document CHEMBL1649124, “Genetic variability among ampC genes from acinetobacter genomic species 3” (Antimicrob Agents Chemother, 2009)

What was measured:
Conditions in all cases: Acinetobacter pittii
[1] = test system: C[C@@H](O)[C@H]1C(=O)N2C(C(=O)O)=C(SCCNC=N)C[C@H]12; test: Ratio of Kcat to Km for Acinetobacter genomosp. 3 isolate 65 ADC-14
[2] = test system: C[C@@H](O)[C@H]1C(=O)N2C(C(=O)O)=C(SCCNC=N)C[C@H]12; test: Activity of Acinetobacter genomosp. 3 isolate 65 ADC-14
[3] = test system: C[C@@H](O)[C@H]1C(=O)N2C(C(=O)O)=C(SCCNC=N)C[C@H]12; test: Activity of Acinetobacter genomosp. 3 isolate 103 ADC-16
[4] = test system: C[C@@H](O)[C@H]1C(=O)N2C(C(=O)O)=C(SCCNC=N)C[C@H]12; test: Ratio of Kcat to Km for Acinetobacter genomosp. 3 isolate 103 ADC-16
[5] = test system: CC(C)(O/N=C(\C(=O)N[C@@H]1C(=O)N2C(C(=O)[O-])=C(C[n+]3ccccc3)CS[C@H]12)c1csc(N)n1)C(=O)O; test: (§1) Ratio of Kcat to Km for Acinetobacter genomosp. 3 isolate 195 ADC-18
[6] = test system: CO/N=C(\C(=O)N[C@@H]1C(=O)N2C(C(=O)O)=C(COC(C)=O)CS[C@H]12)c1csc(N)n1; test: as §1
[7] = test system: C[C@@H](O)[C@H]1C(=O)N2C(C(=O)O)=C(SCCNC=N)C[C@H]12; test: as §1
[8] = test system: CO/N=C(\C(=O)N[C@@H]1C(=O)N2C(C(=O)O)=C(COC(C)=O)CS[C@H]12)c1csc(N)n1; test: (§2) Activity of Acinetobacter genomosp. 3 isolate 195 ADC-18
[9] = test system: C[C@H]1[C@H](NC(=O)/C(=N\OC(C)(C)C(=O)O)c2csc(N)n2)C(=O)N1S(=O)(=O)O; test: as §2
[10] = test system: C[C@@H](O)[C@H]1C(=O)N2C(C(=O)O)=C(SCCNC=N)C[C@H]12; test: as §2

ADC-14 protein (Acinetobacter genomosp. 3) (from UniProt Q0VTR6)
kcat/Km [1]: 1.31 mM⁻¹ s⁻¹ | Km [2]: 2.29 µM | kcat [2]: 0.003 s⁻¹

ADC-16 protein (Acinetobacter genomosp. 3) (from UniProt Q0VTR8)
Km [3]: 2.56 µM | kcat [3]: 0.004 s⁻¹ | kcat/Km [4]: 0.22 mM⁻¹ s⁻¹

ADC-18 protein (Acinetobacter genomosp. 3) (from UniProt Q0VTS0)
kcat/Km [5]: 307 mM⁻¹ s⁻¹ | kcat/Km [6]: 307 mM⁻¹ s⁻¹ | kcat/Km [7]: 0.25 mM⁻¹ s⁻¹ | Km [8]: 0.2 µM | kcat [8]: 0.06 s⁻¹ | Km [9]: 4.54 µM | Km [10]: 2.51 µM | kcat [10]: 0.02 s⁻¹
